One test deals with MCF-7 cells. As to the kind of experiment: MTT cell viability, MCF-7. The test is classed as cell-based. As to conditions: ratio of IC50. The procedure: The results confirmed the cytotoxic activity of these compounds also in this cell line.
(§1) The BC cell lines MCF-7 and MDA-MB-231 were cultured in high-glucose DMEM medium with phenol red, supplemented with 7% and 10% fetal bovine serum (Gibco, Waltham, MA, USA), respectively, 1% Penicillin/Streptomycin (10,000 U/mL, Gibco, Waltham, MA, USA), and 1% non-essential amino acids (Gibco, Waltham, MA, USA). Cell cultures were maintained in a temperature-controlled incubator at 37 °C and 5% CO2 atmosphere. For the 72 h assays with MDA-MB-231, 1.8 x 10³ cells/well were seeded in 100 µL of medium.
(§2) The 3-(4,5-dimethylthiazol-2-yl)-2,5-diphenyl tetrazolium bromide assay was used to evaluate the effect of the designed compounds on cell viability. These compounds were initially dissolved in DMSO (dimethyl sulfoxide) as stock solutions at 150 mM. […] The optical density of the wells was measured at 550 nm using an ELISA reader (MultiSkan, Thermo Scientific, Waltham, MA, USA). Finally, cell viability was expressed as a percentage relative to the negative control (untreated and 0.46% DMSO).
(§3) Cytotoxicity data were analyzed using one-way ANOVA to evaluate differences between the treated groups and the negative control (DMSO). […]

In another test the test system is MDA-MB-231 cells. As to the kind of experiment: MTT cell viability, MDA-MB-231. Type of test: cell-based. Conditions: ratio of IC50. On the procedure:
[…] This effect is undoubtedly related to the mechanism of enzyme inhibition.
as §1, §2, §3

The structures appear in SMILES notation.

Consider `O=C(CCCCCCC(=O)Nc1ccccc1)NO` [SAHA, suberoylanilide hydroxamic acid, reference compound], for which, in the test on MCF-7 cells, the “Selectivity Index MCF-10A/ MCF-7” value is recorded as 0.71. Also, the “Selectivity Index MCF-10A/ MDA-MB-231” value in the test with MDA-MB-231 cells is 0.86.
